In paper PMC3615554 (Journal of biomolecular screening, 2012) one finds IC50 data, which are given here for one compound.

Chains of the proteins cited; added tags and fusions are not shown. Residues count along the entry.
UniProt P00533, 25-1210: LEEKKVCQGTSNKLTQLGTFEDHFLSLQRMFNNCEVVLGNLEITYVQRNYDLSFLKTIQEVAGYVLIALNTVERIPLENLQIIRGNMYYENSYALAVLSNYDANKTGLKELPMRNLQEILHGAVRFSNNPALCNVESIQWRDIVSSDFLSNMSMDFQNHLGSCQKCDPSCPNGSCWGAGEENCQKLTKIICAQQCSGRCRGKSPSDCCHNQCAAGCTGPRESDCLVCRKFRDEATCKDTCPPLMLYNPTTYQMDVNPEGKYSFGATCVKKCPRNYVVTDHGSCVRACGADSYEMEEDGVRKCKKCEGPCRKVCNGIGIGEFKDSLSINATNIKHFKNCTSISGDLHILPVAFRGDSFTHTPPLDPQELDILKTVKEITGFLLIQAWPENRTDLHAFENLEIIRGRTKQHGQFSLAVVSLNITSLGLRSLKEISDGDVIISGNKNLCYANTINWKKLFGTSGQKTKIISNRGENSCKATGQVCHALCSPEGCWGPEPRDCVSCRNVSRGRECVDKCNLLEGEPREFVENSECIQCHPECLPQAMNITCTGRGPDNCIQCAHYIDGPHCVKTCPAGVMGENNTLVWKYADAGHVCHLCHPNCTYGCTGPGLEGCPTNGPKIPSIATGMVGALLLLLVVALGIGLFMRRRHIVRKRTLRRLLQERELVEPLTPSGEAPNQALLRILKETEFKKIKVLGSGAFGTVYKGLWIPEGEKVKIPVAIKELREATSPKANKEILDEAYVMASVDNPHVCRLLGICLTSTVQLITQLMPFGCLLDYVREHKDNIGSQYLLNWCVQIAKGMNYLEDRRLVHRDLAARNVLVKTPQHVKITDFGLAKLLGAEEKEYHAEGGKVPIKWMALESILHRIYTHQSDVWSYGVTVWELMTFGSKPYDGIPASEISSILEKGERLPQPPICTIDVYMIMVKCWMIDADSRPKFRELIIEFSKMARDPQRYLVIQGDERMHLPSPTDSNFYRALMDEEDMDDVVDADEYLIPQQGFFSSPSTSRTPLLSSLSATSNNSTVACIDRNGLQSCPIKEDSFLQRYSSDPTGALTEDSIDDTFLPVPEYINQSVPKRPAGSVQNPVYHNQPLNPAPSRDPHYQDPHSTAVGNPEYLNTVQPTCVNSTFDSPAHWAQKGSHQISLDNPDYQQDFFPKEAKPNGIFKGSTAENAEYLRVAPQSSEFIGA

Molecules are shown by their SMILES.

In general, IC50 refers to the concentration that inhibits the measured activity by half.

In this test the target is EGFR kinase (Homo sapiens, UniProt P00533). The experiment in a line: Luminescence ADP production kinase assay, EGFR. Type of test: biochemical.

The compound `COc1cc2ncnc(Nc3cccc(Cl)c3)c2cc1OC` [Tyrphostin AG 1478] returned an IC50 below 10 nM.
